Data set [1] addresses T1, M11, viral BCL-2 of murine γ-herpesvirus 68 (residues 1–137) (Murid herpesvirus 4, UniProt P89884).
T1 construct: Each of the DNA fragments coding for M11 (residues 1–137); His6 tag; This is inferred: pPROEX HTa encodes an N-terminal His tag with a TEV site, and purification was on Ni-NTA; (N); made in house; host or cells: E. coli BL21(DE3)
The class given is binding. Particulars: ITC, 25 °C, 20 mM Tris-HCl (pH 7.4), 100 mM NaCl; Table S2. An excerpt:
“HT”, “CCD” and “ECD” denote hydrophobic tail, coiled-coil domain and evolutionarily conserved domain, respectively. […] The surface coloring scheme is as follows: olive for Val, Leu, Ile, Phe, Trp, Met, and Ala; yellow for Cys, Gly, Tyr, and Pro; gray for other amino acids. […] Only the BH3-binding groove region of M11 is shown for clarity. […] The arrows indicate the movements of the Cα atoms of Asp59 and Tyr60 in M11. (C) ITC analysis.
Figure 5 Analyses of the Interactions between M11 or BCL-2 Proteins and BAX/BAK (A) Cell-based binding assay. 293T cells were transfected with HA-tagged BAK or Flag-tagged BAX together with the indicated GST-tagged prosurvival BCL-2 proteins. Whole cell lysates were used for immunoprecipitation with anti-GST followed by immunoblotting with anti-HA or anti-Flag. […] (B) ITC analyses of the interactions of M11 with the BH3 peptides of BAX or BAK. The ITC analysis was carried out by titrating 0.1 mM of the indicated peptides into 5 μM of M11. The ITC run for the titration of the 26-mer BAK peptide is shown. […] NIH3T3 cells were transfected with HA-tagged M11 and whole cell lysates were used for immunoprecipitation with control rabbit serum or anti-BAK followed by immunoblotting with anti-HA.
A plasmid containing the DNA segment coding for human BCL-2 (residues 1–50 and 92–207) was also constructed. The resulting protein lacks the internal long loop (residues 51–91) and contains a replacement of residues 35–50 with residues 33–48 of BCL-XL, which was necessary for the solubility of the protein as reported earlier. Each construct was introduced into the E. coli BL21(DE3) strain. The proteins were expressed at 21 °C overnight and purified using a Ni-NTA column and a Hitrap Q anion exchange column.
All measurements were carried out at 25 °C on a MicroCalorimetry System (MicroCal). Protein samples were dialyzed against the solution containing 20 mM Tris-HCl (pH 7.4) and 100 mM NaCl. The samples were degassed for 20 min and centrifuged to remove any residuals prior to the measurements. Dilution enthalpies were measured in separate experiments (titrant into buffer) and subtracted from the enthalpies of the binding between the protein and the titrant. Data were analyzed using the Origin software (OriginLab Corp.).

Amino acid sequences for entries named in this document (tags omitted). Residues count along the entry.
UniProt P89884, 1-137: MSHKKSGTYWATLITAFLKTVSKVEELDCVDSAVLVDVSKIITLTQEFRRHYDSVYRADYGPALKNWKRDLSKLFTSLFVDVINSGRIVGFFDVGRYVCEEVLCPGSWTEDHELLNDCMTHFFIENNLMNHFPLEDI

Data set [2] is described as follows: Circular dichroism spectroscopy, helical contents of Beclin1 peptides. Particulars: CD, mean residue ellipticity at 222 nm; 0.1 mg/mL peptide in 40 mM sodium phosphate buffer (pH 7.0) containing 30% TFE; accumulation of three scans. The data set is classed as physicochemical. As for the experimental part:
Data were collected on a JASCO model J-810 spectropolarimeter with a 0.2 cm cuvette. CD spectrum was recorded over the range of 200–250 nm in a nitrogen atmosphere with peptides dissolved in 40 mM sodium phosphate buffer (pH 7.0) containing 30% TFE at the concentration of 0.1 mg/mL. The spectrum was the accumulation of three scans corrected by subtracting signals from the buffer control. The law CD signal at 222 nm (in millidegrees) was converted to mean residue ellipticity ([θ]obs, in deg ^. cm^2 ^. dmol^−1) using the equation [drawing 1] where C is the peptide concentration (in millimolarity), n is the number of residues in the peptide, and l is the pathlength (in cm). The contents of helix (F helix) was calculated using the equation [drawing 2] where [θ]helix represents the mean residue ellipticity for a complete helix of infinite length at 0 °C (−42,500(1−3/n) deg ^. cm^2 ^. dmol^−1) and [θ]coil is the ellipticity of a complete random coil at 0 °C (640 deg ^. cm^2 .dmol^−1).
The Beclin1(101–125) peptide has considerably higher helical contents than the Beclin1(106–125) peptide. (257 KB TIF) Click here for additional data file.
For orientation: Circular dichroism is widely used to follow secondary structure.

For `CC[C@H](C)[C@H](NC(=O)[C@H](CC(=O)O)NC(=O)[C@H](Cc1ccccc1)NC(=O)[C@H](CC(C)C)NC(=O)[C@H](CC(=O)O)NC(=O)CNC(=O)[C@@H](NC(=O)[C@@H](NC(=O)[C@H](CCCCN)NC(=O)[C@H](CC(C)C)NC(=O)[C@H](CCCNC(=N)N)NC(=O)[C@H](CCCNC(=N)N)NC(=O)[C@H](CO)NC(=O)[C@H](CC(C)C)NC(=O)[C@H](CC(N)=O)NC(=O)[C@H](CCC(=O)O)NC(=O)[C@H](CCSC)NC(=O)[C@@H](NC(=O)CNC(=O)CNC(=O)[C@H](CC(=O)O)NC(=O)[C@H](CO)NC(=O)[C@H](C)N)[C@@H](C)O)C(C)C)[C@@H](C)O)C(=O)N[C@@H](CCSC)C(=O)N[C@@H](CO)C(=O)O` [Beclin1(101–125)], in data set [1], the “-T∆S (M11 + Beclin1)” value came to 21 kJ/mol, the “∆G (M11 + Beclin1)” value is -40 kJ/mol and the “∆H (M11 + Beclin1)” value is -60.96 ± 0.46 kJ/mol. This molecule came in with a helical contents in data set [2] of 29.6%.

Regarding `CC[C@H](C)[C@H](NC(=O)[C@H](CC(=O)O)NC(=O)[C@H](Cc1ccccc1)NC(=O)[C@H](CC(C)C)NC(=O)[C@H](CC(=O)O)NC(=O)CNC(=O)[C@@H](NC(=O)[C@@H](NC(=O)[C@H](CCCCN)NC(=O)[C@H](CC(C)C)NC(=O)[C@H](CCCNC(=N)N)NC(=O)[C@H](CCCNC(=N)N)NC(=O)[C@H](CO)NC(=O)[C@H](CC(C)C)NC(=O)[C@H](CC(N)=O)NC(=O)[C@H](CCC(=O)O)NC(=O)[C@H](CCSC)NC(=O)[C@@H](N)[C@@H](C)O)C(C)C)[C@@H](C)O)C(=O)N[C@@H](CCSC)C(=O)N[C@@H](CO)C(=O)O` [Beclin1(106–125)], in data set [1], the “-T∆S (M11 + Beclin1)” value was determined as 21.5 kJ/mol, the “∆G (M11 + Beclin1)” value was -33.1 kJ/mol and the “∆H (M11 + Beclin1)” value was -54.56 ± 1.13 kJ/mol. The same molecule had a helical contents in data set [2] of 17.0%.

Values taken from article PMC2222952, “Structural and Biochemical Bases for the Inhibition of Autophagy and Apoptosis by Viral BCL-2 of Murine γ-Herpesvirus 68” (PLoS Pathogens, 2008).
